Values of other authors in US20260167740A1, “MEANS AND METHODS FOR TREATING CASTRATION-RESISTANT PROSTATE CANCER” (Merus N.V., priority 2022, published 2026).

System: castration-resistant prostate cancer
Details: CRPC / hormone refractory prostate cancer; phase II trials (Ziada et al. 2004; Molife et al. 2014); cited from earlier work

trastuzumab: ERBB2-targeting agent
antitumor activity in the clinical setting: failure to demonstrate antitumor activity
